The source of these data is ChEMBL document CHEMBL1129348, “Effects of modifications of residues in position 3 of dynorphin A(1-11)-NH2 on kappa receptor selectivity and potency” (J Med Chem, 1996).

The test system of experiment [1] is Opioid receptors mu & kappa (Cavia porcellus). Kind of experiment: Selectivity ratio between mu and kappa opioid receptor from guinea pig brain homogenate.
For experiment [2], the system named is Opioid receptors delta & kappa (Cavia porcellus). Kind of experiment: Selectivity ratio between delta and kappa opioid receptor from guinea pig brain homogenate.
Experiment [3] in a line: Ratio between IC50 of GPI and GPB. The format is functional.

On to `CC[C@H](C)[C@H](NC(=O)[C@H](CCCN=C(N)N)NC(=O)[C@H](CCCN=C(N)N)NC(=O)[C@H](CC(C)C)NC(=O)[C@H](Cc1ccccc1)NC(=O)[C@@H](Cc1ccc(O)cc1)NC(=O)CNC(=O)[C@@H](N)Cc1ccc(O)cc1)C(=O)N[C@@H](CCCN=C(N)N)C(=O)N1CCC[C@H]1C(=O)N[C@@H](CCCCN)C(N)=O`, for which the Ratio in experiment [1] amounted to 28; in experiment [2] it was 240.
In the case of `CC[C@H](C)[C@H](NC(=O)[C@H](CCCN=C(N)N)NC(=O)[C@H](CCCN=C(N)N)NC(=O)[C@H](CC(C)C)NC(=O)[C@H](Cc1ccccc1)NC(=O)[C@@H](NC(=O)CNC(=O)[C@@H](N)Cc1ccc(O)cc1)[C@@H](C)c1c(C)cccc1C)C(=O)N[C@@H](CCCN=C(N)N)C(=O)N1CCC[C@H]1C(=O)N[C@@H](CCCCN)C(N)=O`, the Ratio is 25 in experiment [1] and 40 in experiment [2].
For `CC[C@H](C)[C@H](NC(=O)[C@H](CCCN=C(N)N)NC(=O)[C@H](CCCN=C(N)N)NC(=O)[C@H](CC(C)C)NC(=O)[C@H](Cc1ccccc1)NC(=O)[C@H](Cc1ccc(O)cc1)NC(=O)CNC(=O)[C@@H](N)Cc1ccc(O)cc1)C(=O)N[C@@H](CCCN=C(N)N)C(=O)N1CCC[C@H]1C(=O)N[C@@H](CCCCN)C(N)=O`, in that order: 33 and above 1100.
Turning to `CC[C@H](C)[C@H](NC(=O)[C@H](CCCN=C(N)N)NC(=O)[C@H](CCCN=C(N)N)NC(=O)[C@H](CC(C)C)NC(=O)[C@H](Cc1ccccc1)NC(=O)[C@H](NC(=O)CNC(=O)[C@@H](N)Cc1ccc(O)cc1)[C@@H](C)c1c(C)cccc1C)C(=O)N[C@@H](CCCN=C(N)N)C(=O)N1CCC[C@H]1C(=O)N[C@@H](CCCCN)C(N)=O`, the Ratio worked out at 22 in experiment [3], 19 in experiment [1] and 22 in experiment [2].
